In the experiment the test system is BT-474 xenograft. Put plainly: In vivo anti-tumour activity of ADCs in BT-474 xenograft model. The following applies: NCr nu/nu mice, single IV dose, ADCs 0.3 and 1 mg/kg, Trastuzumab 1.0 mg/kg, result in words. Here is the method:
The antibody was conjugated to A, E, D, or B warhead-linkers and tested in the BT-474 xenograft model. At the same time, to investigate any potential anti-tumor activity observed with Trastuzumab alone, the antibody without PBD was tested in the same assay.
• Set up CR female NCr nu/nu mice with I xl BT474-SPN tumor cells in 0% Matrigel sc in flank. • Cell Injection Volume is 0.1 mL/mouse. • Age at Start Date: 8 to 12 weeks. • Perform a pair match when tumors reach an average size of 100-150 mm^3 and begin treatment. • Body Weight: qd×5 then bi-wk to end • Caliper Measurement: bi-wk to end • Report any adverse reactions or death immediately. • Any individual animal with a single observation of >30% body weight loss or three consecutive measurements of >25% body weight loss will be euthanized. • Any group with two measurements of mean body weight loss of >20% or >10% mortality will stop dosing. The group is not euthanized and recovery is allowed. […]
Exceptions to non-treatment body weight % recovery may be allowed on a case-by-case basis. • Endpoint TGD. Animals are to be monitored individually. […]
For the calculation of group mean tumor volumes the following rule was applied: when an animal exited the study due to tumor size, the final tumor volume recorded for the animal was included with the data used to calculate the mean volume at subsequent time points. […]

The text below walks through data of US20150273077A1, “PYRROLOBENZODIAZEPINE-ANTI-HER2 ANTIBODY CONJUGATES” (priority 2012, published 2015).

In the case of Trastuzumab, the “anti-tumor activity (mean tumour volume)” value is given as “did not show significant anti-tumor activity”.
